In US20190247381A1 one finds Total peptide data, which are given here for three substances.

The assay deals with FLAG-HA-Atoh1 (Mus musculus (Mouse)) (UniProt P48985). The assay can be described thus: IP-MS: immunoprecipitation of Atoh1 and its associated binding partners, excised gel band, mass spectrometry.

In turn, RPL3 (from UniProt P39023) showed a Total peptide of 67 peptides. In the case of RPL4 (from UniProt P36578) it was 106 peptides; in that of TUFM (from UniProt P49411), 72 peptides.
